Most compounds without a hit are left out; they make up all but 2.1% or so of the library.
Glioma ERSR ind = induces the endoplasmic reticulum stress response in human glioma cells. U87-MG GRP78 promoter luciferase reporter, 16 h. Potency, µM, for inactives: at the top dose activation, most hits filed as activators. 0.02% of 420,000 active; note: potency is the fitted concentration of half-maximal effect; series mostly up to about 76 µM; % of control where 0% means no effect; nearly all actives have a fitted effect of over 35% in size
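ERSR induction read as luciferase luminescence (Bright-Glo, 10 min at room temperature) in stably transfected human U87-MG glioma cells exposed to compounds for 16 h, using GRP78 as sensor.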
Nrf2 activator = activators of Nrf2 (ARE) signaling; AREc32 ARE-luciferase reporter (MCF7-derived line), luminescence, 24 h; Potency, µM (doses to about 46.1 µM), for the others: at the top dose activation, hits mostly activators; 0.31% of 410,000 active; AID 624171; note: potency is the fitted concentration of half-maximal effect; % of control where 0% means no effect; nearly all actives have a fitted effect of over 65% in size
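AREc32 cells carrying an ARE-driven firefly luciferase reporter were seeded at 1000 cells/well in OPTI-MEM with 5% FBS, then exposed to compound for 24 hr at 37 deg C. Luminescence was read with Steady-Glo after 30 min at RT.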
miR-21 reporter = miR-21 reporter, rising signal. 340,000 tested, under 10 active. Potency, µM (highest dose often 38.3 µM), for the others: at the highest dose reporter change, positive = more light. HeLa miR-21 FLuc reporter, luciferase, 48 h. AID 2288; active = well fitted rising curve with a large enough effect; inconclusive = small, poorly fitted or top-dose-only effect; inactive = no such curve, though single readings can be large or run the other way;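 further: % of control where 0% means no effect; miR-21 action dims this reporter so a rising signal means less miR-21 action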
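Luminescence from a firefly luciferase reporter carrying a miR-21 binding site downstream, stably expressed under a CMV promoter in HeLa cells that make miR-21 endogenously, reports miRNA modulation after 48 h compound exposure up to approximately 40uM final.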
Nrf2 block = Nrf2 pathway inhibition; AID 504444; Potency, µM (highest dose often 46 µM), inactives show top-dose activity change, negative = inhibition, hits mostly inhibitors; A549 ARE-Fluc reporter, luciferase luminescence, 18-24 h; 2.1% of 360,000 active; note: potency is the fitted concentration of half-maximal effect; % is set by controls: 0 for no effect and ±100 for the full control effect; nearly all actives have a fitted effect of over 60% in size
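Quantitative HTS in A549 cells stably bearing an antioxidant response element-firefly luciferase construct. Inhibition of Nrf2-driven transcription was scored by luminescence after 18-24 h of compound exposure at 37 °C.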
A549 viability = kills or reduces viability of A549 cells in Nrf2 counter-screen. 0.16% of 390,000 active. Potency, µM (titrated, usually from 46 µM), without a hit: at the highest dose activity change, negative = cytotoxicity, hits mostly inhibitors. A549 ARE-Fluc cells, CellTiter-Fluor viability, 18-24 h. AID 504648; note: potency is the fitted concentration of half-maximal effect; % is set by controls: 0 for no effect and ±100 for the full control effect
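A549 ARE-Fluc cells in 5% FBS OPTI-MEM, 5000 cells/well, rested 2 h then exposed to compounds in concentration-response for 18-24 h at 37 °C. Viability by CellTiter-Fluor fluorescence (Ex 405/Em 525) after 30 min; luciferase luminescence (BugLite, 15 min, RT) read afterwards.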
TSG101-PTAP inh = blocks PTAP/TSG101 interaction to inhibit HIV-1 budding; Potency, µM (top dose mostly 115 µM), for inactives: at the top dose activity change, negative = inhibition, usual class: inhibitors; Fluorescence polarization, FITC-PTAP peptide / Tsg101 binding; Q99816; AID 493005; 340,000 tested, under 10 active; active = well fitted inhibition curve with a large enough effect in the main read-out, with a control signal flat, not every such curve was filed as active; inconclusive = small, poorly fitted or top-dose-only effect, or effect the other way, or a change in a side signal; inactive = no such curve, though single readings can be large or run the other way; note: potency is the fitted concentration of half-maximal effect; % of control where 0% means no effect
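Compounds were pin-transferred onto Tsg101 binding domain (10 uM final) in HEPES pH 7.5 buffer, then FITC-PTAP peptide was added at 50 nM final. After 20 min at RT, polarization reported peptide displacement across a qHTS concentration series.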
* = called active by the depositor. Unless noted, calls come from the whole dose curve; as a rule, active = well fitted curve in the direction sought with a large enough effect; inconclusive = small, poorly fitted or top-dose-only effect, or another doubt; inactive = no such curve, though single readings can be large; an effect the other way counts as inactive or inconclusive.

Screening COc1ccc(C2Nc3ccccc3C(=O)N2Cc2ccco2)cc1COc1ccccc1 (stereo not given) returned Nrf2 block -14% and A549 viability -3%.
`Cc1ccc(C)c(CN2C(=O)c3ccccc3S(=O)c3ccc(C(=O)N(C)Cc4ccccc4)cc32)c1` (stereo not given) gave Glioma ERSR ind -3%, Nrf2 activator 0%, miR-21 reporter 17%, Nrf2 block 21µM* and A549 viability -26%.
For COC(=O)c1ccc2c(c1)N(Cc1cc(C)ccc1C)C(=O)c1ccccc1S2=O (stereo not given) the results were miR-21 reporter -4%.
Screening NC1=C(c2ccc([N+](=O)[O-])cc2)C(=O)CO1 returned Glioma ERSR ind -4%, Nrf2 activator 0%, miR-21 reporter 0%, Nrf2 block -9%, A549 viability -9% and TSG101-PTAP inh -4%.
`O=c1oc2c(-c3ccc([N+](=O)[O-])cc3)cc(O)cc2s1` gave Glioma ERSR ind -6%, Nrf2 activator 22µM*, miR-21 reporter -5%, Nrf2 block 4%, A549 viability 7% and TSG101-PTAP inh -1%.
Screening COC(=O)c1sccc1NC(=O)c1csc(C)c1 returned Glioma ERSR ind 0%, Nrf2 activator 5µM*, miR-21 reporter -4%, A549 viability inconclusive and TSG101-PTAP inh -14%.
CNS(=O)(=O)c1ccc(NC(=O)c2csc(C)c2)cc1 was read as Glioma ERSR ind 5%, Nrf2 activator 27%, miR-21 reporter -3%, Nrf2 block inconclusive, A549 viability 7% and TSG101-PTAP inh 3%.
COC(=O)c1sccc1NC(=O)c1c(Cl)cccc1Cl was read as Glioma ERSR ind -4%, Nrf2 activator 4%, miR-21 reporter 3%, Nrf2 block inconclusive, A549 viability 0% and TSG101-PTAP inh -2%.
Screening Cc1cc(C(=O)Nc2ccccc2[N+](=O)[O-])cs1 returned Glioma ERSR ind 0%, Nrf2 activator 11µM*, miR-21 reporter 20%, Nrf2 block inconclusive, A549 viability -6% and TSG101-PTAP inh 1%.
COC(=O)c1sccc1NC(=O)c1cccc(Cl)c1 was read as Glioma ERSR ind -1%, Nrf2 activator 8.9µM*, Nrf2 block 5%, A549 viability 4% and TSG101-PTAP inh -1%.
Screening Cc1cc(C(=O)Nc2ccc(Br)cc2)cs1 returned Glioma ERSR ind 3%, Nrf2 activator 11µM*, miR-21 reporter -5%, Nrf2 block inconclusive, A549 viability 1% and TSG101-PTAP inh 1%.
Screening Cc1cc2c(s1)c1cnn(Cc3ccccc3Br)c(=O)c1n2C returned Nrf2 block 5% and A549 viability -11%.
For CC(=O)c1ccc(-c2ccc3c4c(ccc3c2)OC(CNC(=O)C(C)N2CCOCC2)C4)s1 (stereo not given) the results were Glioma ERSR ind -4%.
CCc1ccc(NC(=O)Nc2ccsc2C(=O)OC)cc1 was read as Glioma ERSR ind -2%, Nrf2 activator 13µM*, miR-21 reporter -39%, Nrf2 block inconclusive, A549 viability -17% and TSG101-PTAP inh -3%.
COC(=O)c1sccc1NC(=O)Nc1ccc(C)c(C)c1 was read as Glioma ERSR ind -2%, Nrf2 activator inconclusive, miR-21 reporter -52%, Nrf2 block inconclusive, A549 viability -12% and TSG101-PTAP inh 0%.
CCn1c(-c2cccc(OC)c2)nc2cc(NC(C)=O)cc(C(=O)N3CCCC(C(C)=O)C3)c21 (stereo not given) was read as Glioma ERSR ind -3%.
`Cc1cc(SCC(=O)c2cccs2)n2nc(C)c(-c3ccc(Cl)cc3)c2n1` gave Glioma ERSR ind -3%, Nrf2 activator 0%, miR-21 reporter 3%, Nrf2 block 1%, A549 viability 8% and TSG101-PTAP inh 4%.
Cc1nn2c(SCC(=O)c3cccs3)cc(C(C)(C)C)nc2c1-c1ccccc1 was read as Glioma ERSR ind -1%, Nrf2 activator 0%, miR-21 reporter -3%, Nrf2 block 21µM*, A549 viability inconclusive and TSG101-PTAP inh -8%.
For COc1ccc(NS(=O)(=O)c2csc(C(N)=O)c2)cc1 the results were Glioma ERSR ind 0%, Nrf2 activator 0%, miR-21 reporter -1%, Nrf2 block 1%, A549 viability -8% and TSG101-PTAP inh -1%.
NC(=O)c1cc(S(=O)(=O)Nc2ccc(OC(F)(F)F)cc2)cs1 was read as Glioma ERSR ind -3%, Nrf2 activator 0%, miR-21 reporter 0%, Nrf2 block 18µM*, A549 viability -3% and TSG101-PTAP inh -4%.
Screening N#Cc1ccccc1S(=O)(=O)N1CCN(S(=O)(=O)c2ccc3c(c2)OCCO3)CC1 returned Nrf2 block 18% and A549 viability 8%.
For O=S(=O)(c1ccc2c(c1)OCCO2)N1CCN(S(=O)(=O)c2cccc3cccnc23)CC1 the results were Nrf2 block 12% and A549 viability 9%.
For COc1ccc(NC(=O)Cn2nnc(C(=O)NCc3cccs3)c2N)c(OC)c1 the results were Glioma ERSR ind -6%, Nrf2 activator 0%, miR-21 reporter 2%, Nrf2 block 18µM*, A549 viability inconclusive and TSG101-PTAP inh -10%.
`COc1cc(C=CC(=O)c2ccccc2)cc(OC)c1OC` gave Glioma ERSR ind -7% and Nrf2 activator inconclusive.
Screening COc1cc(OC)c(C(=O)C=Cc2ccc(OC)c(OC)c2)c(OC)c1 returned Glioma ERSR ind -8%, Nrf2 activator 11µM*, Nrf2 block inconclusive, A549 viability -22% and TSG101-PTAP inh -9%.
COc1cc(C=CC(=O)c2cc(OC)c(OC)c(OC)c2)cc(OC)c1OC was read as Glioma ERSR ind -13%, Nrf2 activator -3%, Nrf2 block 23µM*, A549 viability inconclusive and TSG101-PTAP inh -1%.
O=C(c1cccc(Cn2cccn2)c1)N1CCC(n2c(C3CCCO3)nc3cc(C(F)(F)F)ccc32)CC1 (stereo not given) was read as Glioma ERSR ind 10%.
`CCc1nc2cc(C(=O)N[C@H]3CCCCNC3=O)cc(NC(=O)c3ccccc3OC)c2n1C` gave Glioma ERSR ind -2%.
`O=C(Nc1nc2ccc(Cl)cc2s1)c1ccco1` gave Glioma ERSR ind -14%, Nrf2 activator inconclusive, miR-21 reporter -5%, Nrf2 block inconclusive, A549 viability -1% and TSG101-PTAP inh -3%.

2 entries drawn at random from the list so far:
Screening COc1cc(OC)c(C(=O)C=Cc2ccc(OC)c(OC)c2)c(OC)c1 returned Glioma ERSR ind -8%, Nrf2 activator 11µM*, Nrf2 block inconclusive, A549 viability -22% and TSG101-PTAP inh -9%.
For COc1ccc(NC(=O)Cn2nnc(C(=O)NCc3cccs3)c2N)c(OC)c1 the results were Glioma ERSR ind -6%, Nrf2 activator 0%, miR-21 reporter 2%, Nrf2 block 18µM*, A549 viability inconclusive and TSG101-PTAP inh -10%.

Taken from the entries so far for reference:
CCn1c(-c2cccc(OC)c2)nc2cc(NC(C)=O)cc(C(=O)N3CCCC(C(C)=O)C3)c21 (stereo not given) was read as Glioma ERSR ind -3%.
`Cc1cc(SCC(=O)c2cccs2)n2nc(C)c(-c3ccc(Cl)cc3)c2n1` gave Glioma ERSR ind -3%, Nrf2 activator 0%, miR-21 reporter 3%, Nrf2 block 1%, A549 viability 8% and TSG101-PTAP inh 4%.
